From US10087225B2, “Formulation of MK2 inhibitor peptides” (MOERAE MATRIX, INC., priority 2015, dated 2018)

What was measured:
Test in all cases: Kinase Profiling Assay
Assay type in all cases: biochemical
Met(M1268T)(h) = Met(M1268T)(h) (Homo sapiens, UniProt P08581, M1250T)
cKit(D816V)(h) = cKit(D816V)(h) (Homo sapiens, UniProt P10721, D816V)
CDK7/cyclinH/MAT1(h) = CDK7/cyclinH/MAT1(h) (Homo sapiens, UniProt P50613)
PDGFRα(D842V)(h) = PDGFRα(D842V)(h) (Homo sapiens, UniProt P16234, D842V)
Ret(V804L)(h) = Ret(V804L)(h) (Homo sapiens, UniProt P07949, V804L)
SGK2(h) = SGK2(h) (Homo sapiens, UniProt Q9HBY8)
PDGFRα(h) = PDGFRα(h) (Homo sapiens, UniProt P16234)
Aurora-A(h) = Aurora-A(h) (Homo sapiens, UniProt O14965)
IR(h) = IR(h) (Homo sapiens, UniProt P06213)
TLK2(h) = TLK2(h) (Homo sapiens, UniProt Q86UE8)
IKKβ(h) = IKKβ(h) (Homo sapiens, UniProt O14920)
Ab1(h) = Ab1(h) (Homo sapiens, UniProt P00519)
Pim-3(h) = Pim-3(h) (Homo sapiens, UniProt Q86V86)
Src(1-530)(h) = molecular target: T1, Src(1-530)(h) (Homo sapiens, UniProt P12931)
T1 construct: Src(1-530)(h)

Yes(h) = Yes(h) (Homo sapiens, UniProt P07947)
PAR-1Bα(h) = PAR-1Bα(h) (Homo sapiens, UniProt Q7KZI7)
JNK3(h) = JNK3(h) (Homo sapiens, UniProt P53779)
Ab1(H396P)(h) = Ab1(H396P)(h) (Homo sapiens, UniProt P00519, H396P)
Hck(h) = Hck(h) (Homo sapiens, UniProt P08631)
PhKγ2(h) = PhKγ2(h) (Homo sapiens, UniProt P15735)
Arg(h) = Arg(h) (Homo sapiens, UniProt P42684)
PKCη(h) = PKCη(h) (Homo sapiens, UniProt P24723)
GRK7(h) = GRK7(h) (Homo sapiens, UniProt Q8WTQ7)
EphA1(h) = EphA1(h) (Homo sapiens, UniProt P21709)
DYRK2(h) = DYRK2(h) (Homo sapiens, UniProt Q92630)
PKBγ(h) = PKBγ(h) (Homo sapiens, UniProt Q9Y243)
TSSK2(h) = TSSK2(h) (Homo sapiens, UniProt Q96PF2)
CK1γ2(h) = CK1γ2(h) (Homo sapiens, UniProt P78368)
PKCϵ(h) = PKCϵ(h) (Homo sapiens, UniProt Q02156)
Pim-2(h) = Pim-2(h) (Homo sapiens, UniProt Q9P1W9)
PAK5(h) = PAK5(h) (Homo sapiens, UniProt Q9P286)
Ab1(Q252H)(h) = Ab1(Q252H)(h) (Homo sapiens, UniProt P00519, Q252H)
Ros(h) = Ros(h) (Homo sapiens, UniProt P08922)
GRK5(h) = GRK5(h) (Homo sapiens, UniProt P34947)
Rse(h) = Rse(h) (Homo sapiens, UniProt Q06418)
mTOR(h) = mTOR(h) (Homo sapiens, UniProt P42345)
EGFR(T790M)(h) = EGFR(T790M)(h) (Homo sapiens, UniProt P00533, T790M)
CaMKIIγ(h) = CaMKIIγ(h) (Homo sapiens, UniProt Q13555)
Src(T341M)(h) = Src(T341M)(h) (Homo sapiens, UniProt P12931, T341M)
CDK1/cyclinB(h) = CDK1/cyclinB(h) (Homo sapiens, UniProt P06493)

`CC(C)C[C@H](NC(=O)[C@H](C)NC(=O)[C@H](CCCCN)NC(=O)[C@H](C)NC(=O)[C@H](CCCNC(=N)N)NC(=O)[C@H](C)NC(=O)[C@H](CCC(N)=O)NC(=O)[C@H](CCCNC(=N)N)NC(=O)[C@H](C)NC(=O)[C@H](C)NC(=O)[C@H](C)NC(=O)[C@H](CCCNC(=N)N)NC(=O)[C@H](C)NC(=O)[C@@H](N)Cc1ccc(O)cc1)C(=O)N[C@@H](C)C(=O)N[C@@H](CCCNC(=N)N)C(=O)N[C@@H](CCC(N)=O)C(=O)N[C@@H](CC(C)C)C(=O)NCC(=O)N[C@H](C(=O)N[C@@H](C)C(=O)N[C@@H](C)C(=O)O)C(C)C` [MMI-0100] gave an activity at 100 µM (Met(M1268T)(h)) of 114%, an activity at 100 µM (cKit(D816V)(h)) of 117% and an activity at 100 µM (CDK7/cyclinH/MAT1(h)) of 89%. For the same molecule, the activity at 100 µM (PDGFRα(D842V)(h)) was 103%, the activity at 100 µM (Ret(V804L)(h)) was 113% and the activity at 100 µM (SGK2(h)) was 103%. For the same molecule, the activity at 100 µM (PDGFRα(h)) was 104%, the activity at 100 µM (Aurora-A(h)) was 120% and the activity at 100 µM (IR(h)) was 112%. It also gave an activity at 100 µM (TLK2(h)) of 113%, an activity at 100 µM (IKKβ(h)) of 105% and an activity at 100 µM (Ab1(h)) of 136%. The activity at 100 µM (Pim-3(h)) was 98%, the activity at 100 µM (Src(1-530)(h)) was 95% and the activity at 100 µM (Yes(h)) was 49%. It also gave an activity at 100 µM (PAR-1Bα(h)) of 62%, an activity at 100 µM (JNK3(h)) of 104% and an activity at 100 µM (Ab1(H396P)(h)) of 130%. The activity at 100 µM (Hck(h)) was 354%, the activity at 100 µM (PhKγ2(h)) was 62% and the activity at 100 µM (Arg(h)) was 89%. For the same molecule, the activity at 100 µM (PKCη(h)) was 105%, the activity at 100 µM (GRK7(h)) was 111% and the activity at 100 µM (EphA1(h)) was 114%. For the same molecule, the activity at 100 µM (DYRK2(h)) was 99%, the activity at 100 µM (PKBγ(h)) was 105% and the activity at 100 µM (TSSK2(h)) was 107%. It also gave an activity at 100 µM (CK1γ2(h)) of 119%, an activity at 100 µM (PKCϵ(h)) of 102% and an activity at 100 µM (Pim-2(h)) of 117%. It also gave an activity at 100 µM (PAK5(h)) of 97%, an activity at 100 µM (Ab1(Q252H)(h)) of 105% and an activity at 100 µM (Ros(h)) of 107%. For the same molecule, the activity at 100 µM (GRK5(h)) was 117%, the activity at 100 µM (Rse(h)) was 109% and the activity at 100 µM (mTOR(h)) was 102%. It also gave an activity at 100 µM (EGFR(T790M)(h)) of 106%, an activity at 100 µM (CaMKIIγ(h)) of 106% and an activity at 100 µM (Src(T341M)(h)) of 98%. The activity at 100 µM (CDK1/cyclinB(h)) was 96%.
